# Values quoted from earlier work in patent publication US20090306452A1, “APPARATUS FOR TREATING A CONTAMINATED MEDIA WITH A SORBENT” (priority 2008, published 2009).
# Conditions: log10 of concentration in octanol / concentration in water; examples of hydrophobic hazardous materials
substance,measurement,value
tetrachlorobenze,Log P,about 5
